# Assay results taken from PubChem BioAssay AID1663 (Broad Institute, 2009).
# The entries are a selection whose mix differs from that of the whole data set. Activity calls are given as the source filed them.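 How the source made its calls: active means mean replicate score, as percent of positive control, at or above 50; inconclusive means mean below 50 but at least one replicate at or above 50; inactive means mean and every replicate below 50.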
# Assay: blockers of SFLLRN-triggered platelet ATP release – cell-based, MLPCN, human platelets, primary screen (AID 1663)
# Settings: human platelet-rich plasma, SFLLRN dense granule ATP release, luminescence; stronger effect = higher value;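 compounds screened at 7.5 µM in platelet-rich plasma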
row,SMILES,inhibition
1,NC(=O)c1cc([N+](=O)[O-])cc([N+](=O)[O-])c1N,inactive: -2.32%
2,Cc1ccc(N/C(=N/P(=O)(N2CCOCC2)N2CCOCC2)N2CCOCC2)cc1,inactive: -17.6%
3,Cc1ccc(OP(=O)(Nc2nccs2)Oc2ccc(C)cc2)cc1,inactive: -6.82%
4,COc1ccccc1OP(=O)(Nc1ccc(C)cn1)Oc1ccccc1OC,inactive: 11.1%
5,Clc1ccc(Cl)c(NC2=NCC(CBr)S2)c1 (stereo not given),inactive: 0.13%
6,CN1CCCC(OC(=O)C(c2ccccc2)c2ccccc2)C1 (stereo not given),inactive: -1.57%
7,CC(C)CC(=O)NC(Sc1ccc(Cl)cc1)C(Cl)(Cl)Cl (stereo not given),inactive: 1.32%
8,Nc1cc(N)c2nonc2c1[N+](=O)[O-],inactive: -12%
9,Cc1c2non([O-])c-2c(C)[n+](=O)[n+]1[O-],inactive: -5.07%
10,O=C(NC(Sc1ccncn1)C(Cl)(Cl)Cl)c1ccccc1 (stereo not given),inactive: 3.27%
11,Oc1ccccc1CNc1ccccn1,inactive: -0.163%
12,O=C(O)c1ccccc1[As](=O)(O)O,inactive: 2.03%
13,CC(=O)Nc1ccc([As](=O)(O)O)cc1,inactive: -0.0823%
14,O=P(Nc1nc2ccc(Cl)cc2s1)(c1ccccc1)c1ccccc1,inactive: 11.2%
15,Cc1ccc(NP(=O)(Oc2ccccc2F)Oc2ccccc2F)nc1,inactive: -7.47%
16,CN(C(=O)Cc1ccc(Cl)c(Cl)c1)[C@H]1CCCC[C@@H]1N1CCCC1,inactive: -0.711%
17,CCOP(=O)(Nc1ccccc1)OCC,inactive: -0.329%
18,Cc1cc(SC(NC(=O)c2ccc(F)cc2)C(Cl)(Cl)Cl)ncn1 (stereo not given),inactive: 19%
19,O=[N+]([O-])c1cc([N+](=O)[O-])c(CCN2CCOCC2)c([N+](=O)[O-])c1,inactive: 9.11%
20,CCN(N=Nc1nonc1N)c1nonc1N,inactive: -44.4%
21,Nc1cccc2ccc([As](=O)(O)O)cc12,inactive: 2.14%
22,O=C(Nc1cc([As](=O)(O)O)ccc1O)c1ccccc1,inactive: -3.24%
23,CC(C)(C)C(=O)NC(Sc1ccncn1)C(Cl)(Cl)Cl (stereo not given),inactive: 0.765%
24,O=[N+]([O-])c1ncn(CCn2ncnc2[N+](=O)[O-])n1,inactive: -7.66%
25,O=[N+]([O-])c1cccc(NC2=NCC(CBr)S2)c1 (stereo not given),inactive: 4.68%

row,SMILES,inhibition
1,O=C(O)CNc1ccc([As](=O)(O)O)cc1,inactive: -0.0323%
2,COc1ccc(C2=NCC(CBr)S2)cc1 (stereo not given),inactive: 30.6%
3,O=[N+]([O-])c1cccc2n[nH]nc12,inactive: 0.5%
4,CC(=O)N1C2C3N(C(C)=O)C1C1N(C(C)=O)C(C(N1C(C)=O)N3C(C)=O)N2C(C)=O,inactive: -14.8%
5,CCc1nc2c(n1)c1c(non1O)c1c2no[n+]1[O-],inactive: 27.3%
6,O=[N+]([O-])c1cc([N+](=O)[O-])c(CCNc2ccccc2)c([N+](=O)[O-])c1,inactive: -5.53%
7,Cc1ccc(NP(=O)(Oc2ccccc2)Oc2ccccc2)nc1,inactive: -3.21%
8,C[N+]1=C2C=CC=CC=C2SC12C([N+](=O)[O-])=CC([N+](=O)[O-])=C[C-]2[N+](=O)[O-] (stereo not given),inactive: 14.9%
9,Nc1ccc([As](=O)(O)c2ccc(N)cc2)cc1,inactive: 0.676%
10,CCN(/C(=N/P(=O)(N1CCOCC1)N1CCOCC1)N1CCOCC1)c1ccc(OC)cc1,inactive: 3.89%
11,CN(C)C(=O)OCCc1n(C)cc[n+]1C,inactive: 9.62%
12,CC(C)=N/N=C(\N)N[N+](=O)[O-],inactive: 3.41%
13,CC1CCN(C(=O)Oc2c(Cl)cc(Cl)c3cccnc23)CC1,inactive: -0.37%
14,CC(C)C(=O)NC(Sc1ccccc1)C(Cl)(Cl)Cl (stereo not given),inactive: 3.3%
15,O=P(Nc1nccs1)(c1ccccc1)c1ccccc1,inactive: -20.1%
16,c1nnnn1CCn1cnnn1,inactive: 1.01%
17,O=P(Nc1ccccn1)(c1ccc(Br)cc1)c1ccc(Br)cc1,inactive: -0.0148%
18,CN(C)C1(CNC(=O)c2ccc(Cl)c(S(N)(=O)=O)c2)CCCCC1,inactive: 6.43%
19,C[C@H]1OP(=O)(Oc2ccccc2)[C@H](O)[C@H](O)[C@H]1N=[N+]=[N-] (stereo not given in full),inactive: 4.7%
20,O=P(Nc1nc2ccccc2s1)(c1ccccc1)c1ccccc1,inactive: -8.02%
21,O=[N+]([O-])c1ccc(O)c(/C=N/Nc2ccc([N+](=O)[O-])cc2[N+](=O)[O-])c1,inactive: -0.688%
22,CC(=O)NC(SC(=S)N(C)C)C(Cl)(Cl)Cl (stereo not given),inactive: -2.3%
23,O=[N+]([O-])c1ncn(CCn2cnc([N+](=O)[O-])n2)n1,inactive: 0.884%
24,O=[As](O)(c1ccccc1)c1ccc(O)cc1,inactive: -2.68%
25,Nc1ccc([As](=O)(O)c2ccc([N+](=O)[O-])cc2)cc1,inactive: 5.62%

row,SMILES,inhibition
1,C(Cc1nn[nH]n1)Cc1nn[nH]n1,inactive: 5.06%
2,O=C(OC1CN2CCC1CC2)c1cccc(Cl)c1 (stereo not given),inactive: -1.83%
3,CCNC(=S)/N=C(\N)N[N+](=O)[O-],inactive: 1.18%
4,O=C(NC1CCS(=O)(=O)C1)NP(=S)(Oc1ccccc1)Oc1ccccc1 (stereo not given),inactive: 6.05%
5,Cc1ccc(NP(=O)(Oc2cccc(C)c2)Oc2cccc(C)c2)nc1,inactive: -11.2%
6,CCOC(=O)NC(Sc1ccccc1)C(Cl)(Cl)Cl (stereo not given),inactive: -3.58%
7,c1ccc(-c2nn[nH]n2)c(-c2nn[nH]n2)c1,inactive: 2.48%
8,CC(=O)NC(SC(=S)N(CC(C)C)CC(C)C)C(Cl)(Cl)Cl (stereo not given),inactive: 0.54%
9,Cc1ccc(OP(=O)(Nc2ccccn2)Oc2ccc(C)cc2)cc1,inactive: 1.58%
10,COC(=O)c1cc2c(s1)N=C(c1ccccc1)N(C)P2(=O)N1CCOCC1 (stereo not given),inactive: 1.57%
11,CCC(=O)N1C2C3N(C(=O)CC)C1C1N(C(=O)CC)C(C(N1C(=O)CC)N3C(=O)CC)N2C(=O)CC,inactive: 1.53%
12,O=C(OC1CN2CCC1CC2)c1ccccc1 (stereo not given),inactive: -7.29%
13,CN(C)C(=O)Oc1noc2ccccc12,inactive: 1.45%
14,Cc1ccccc1OP(=O)(Nc1ccccn1)Oc1ccccc1C,inactive: -3.25%
15,CCOc1ccc(C2=NCC(CBr)S2)cc1 (stereo not given),inactive: 1.68%
16,O=P1(Nc2nc3ccc(Cl)cc3s2)COc2ccccc2O1 (stereo not given),inactive: -5.03%
17,CC(C)(C)C(=O)NC(Sc1ccccc1)C(Cl)(Cl)Cl (stereo not given),inactive: 1.38%
18,CC(=O)c1ccc(N2CC2c2ccncc2)cc1 (stereo not given),inactive: -2.16%
19,C[C@@H]1C=CCP(=O)(Oc2ccccc2)O1 (stereo not given in full),inactive: -2.88%
20,C[C@H]1OP(=O)(Oc2ccccc2)C[C@@H]2O[C@@H]21 (stereo not given in full),inactive: 2.87%
21,CC(=O)Nc1ccc(Oc2c([N+](=O)[O-])cc([N+](=O)[O-])cc2[N+](=O)[O-])cc1,inactive: 0.648%
22,CC(=O)Nc1ccc([As](=O)(O)O)c(O)c1,inactive: 1.59%
23,CS(=O)(=O)c1ccc(Cl)c(NC(=O)COC(=O)C(O)(c2ccccc2)c2ccccc2)c1,inactive: -7.83%
24,COc1cc(C(=O)NCC2(N3CCOCC3)CCCCC2)cc(Cl)c1OC(C)C,inactive: 7.02%
25,O=[As](O)(O)c1cccnc1,inactive: -3.25%

row,SMILES,inhibition
1,O=C(OC1CN2CCC1CC2)c1ccc(Cl)cc1 (stereo not given),inactive: 13.5%
2,O=[As](O)(c1cccc(O)c1)c1cccc(O)c1,inactive: 2.4%
3,Cc1cccc(OCC(=O)OC2CN3CCC2CC3)c1 (stereo not given),inactive: 3.34%
4,CCCOP(=S)(Nc1nc(N)cc(=O)[nH]1)OCCC,inactive: 5.47%
5,Cc1ccc(NCCc2c([N+](=O)[O-])cc([N+](=O)[O-])cc2[N+](=O)[O-])cc1,inactive: 6.69%
6,Nc1cccc2c([As](=O)(O)O)cccc12,inactive: -45.2%
7,CCOP(=O)(Nc1cccc2ccccc12)OCC,inactive: -8.01%
8,COc1cc(C2NCCC3(OCCO3)C2(C)C)cc(OC)c1OC (stereo not given),inactive: -5.19%
9,CS(=O)(=O)c1cc([N+](=O)[O-])c2no[n+]([O-])c2c1,inactive: 1.36%
10,O=P(Nc1nccs1)(c1ccccc1)c1nc2ccccc2s1 (stereo not given),inactive: 2.58%
11,O=P(Nc1nccs1)(Oc1ccccc1)Oc1ccccc1,inactive: -11.8%
12,CCOP1(=S)c2c(C)nn(CCC#N)c2N=C(c2ccccc2F)N1C (stereo not given),inactive: -16.6%
13,Nc1ccccc1[As](=O)(O)c1ccccc1,inactive: -3.98%
14,O=C(O)COc1ccc([As](=O)(O)O)cc1[N+](=O)[O-],inactive: -0.836%
15,NC(=O)Nc1ccc([As](=O)(O)O)cc1,inactive: 0.572%
16,CN(C(=O)Cc1ccc(Cl)c(Cl)c1)[C@H]1CC[C@@]2(CCCO2)C[C@@H]1N1CCCC1,inactive: 10.6%
17,CN(C)C(=O)c1cc([N+](=O)[O-])cc2c1-c1c(cc([N+](=O)[O-])cc1[N+](=O)[O-])C2=O,inactive: 4.99%
18,O=[N+]([O-])c1ccc2c(c1)nnn2O,inactive: -0.239%
19,CCOP1(=S)c2c(C)nn(CCC#N)c2N=C(c2ccc(F)cc2)N1C (stereo not given),inactive: 3.49%
20,CN(C(=O)Cc1ccccc1)[C@@H]1CC[C@]2(CCCO2)C[C@H]1N1CCCC1,inactive: 2.94%
21,N#CCCN(C(=O)COC(=O)C(O)(c1ccccc1)c1ccccc1)c1ccc(F)cc1,inactive: -2.59%
22,CC1CCC(C(C)C)C(OP(=O)(Nc2ccccn2)c2ccccc2)C1 (stereo not given),inactive: -2.52%
23,Cc1ccc(C(=O)OC2CN3CCC2CC3)cc1 (stereo not given),inactive: 4.28%
24,Cc1nn(-c2ccccc2)c2c1P(=O)(N1CCOCC1)N(C)C(c1ccccc1)=N2 (stereo not given),inactive: -1.98%
25,O=C(/C=C/c1ccccc1)OC1CN2CCC1CC2 (stereo not given),inactive: -1.99%
